# Results: paper PMC6930649, “Four New Iridoid Metabolites Have Been Isolated from the Stems of Neonauclea reticulata (Havil.) Merr. with Anti-Inflammatory Activities on LPS-Induced RAW264.7 Cells” (Molecules, 2019)
# System: RAW264.7 cells
# Experiment: Cell viability assay (MTT) in RAW264.7 cells
# Format: cell-based, mouse
# Settings: 6.25-100 μg/mL, 24 h, LPS 100 ng/mL, mean ± SD of three independent experiments
# Method: RAW264.7 the mouse macrophages cell line (Bioresource Collection and Research Center (BCRC) Number: 60001) was obtained from Food Industry Research and Development Institute (Hsinchu, Taiwan). All of the cell lines were cultured in DMEM containing 10% (v:v) fetal bovine serum (FBS), penicillin and streptomycin (100 U/mL), 4 mM L-glutamine (100 U/mL). The cells were cultured in a humidified incubator under 5% CO2 at 37 °C. The RAW264.7 cells (5 × 10^5 cells per mL) were seeded into plates for 24 h before treatment.
# The in-vitro cell viability activity of MeOH extracts, partition fractions and pure compounds were determined by the MTT assay. RAW264.7 cells (5 × 10^4/well) were seeded in 96-well plates and incubated for 24 h. The cells were treated with MeOH extracts and contain partition fractions in various concentrations (0, 62.5, 125, 250, 500 and 1000 μg/mL), compounds and positive control (0, 6.25, 12.5, 25, 50 and 100 μg/mL) in the presence or absence of LPS (100 ng/mL) for 24 h. After 24 h, the medium was replaced with a medium containing 0.5 mg/mL MTT solution and incubated at 37 °C for 4 h. After the end of the MTT reaction, we used 0.04 N HCl /isopropanol solution to dissolve the formazan crystals. The absorbance was measured at 570 nm using a microplate reader (Molecular Devices, LLC.). The cell viability was calculated and compared with the control group.
substance,measurement,value
(+)-pinoresinol [Compound 11],CC50,>100 ^b μg/mL

# Marks after values point to notes of the source that are not given here.
